Test results from BindingDB's records for doi:10.1046/j.1472-8206.2002.00076.x (Shinshu University, 2002).

Target: Type-1 angiotensin II receptor (Homo sapiens, UniProt P30556)

Ki: 0.67 nM
SMILES: CCCCc1nc(Cl)c(C(=O)O)n1Cc1ccc(-c2ccccc2-c2nn[nH]n2)cc1 [2-Butyl-5-chloro-3-[2'-(1H-tetrazol-5-yl)-biphenyl-4-ylmethyl]-3H-imidazole-4-carboxylic acid]
